As a reminder, the pIC50 is −log10 of the IC50, conventionally taken in molar units. The low end stands for a high IC50, the high end for a low IC50.

The chains behind the UniProt entries cited, without tags or fusion partners.
UniProt P41143, whole entry: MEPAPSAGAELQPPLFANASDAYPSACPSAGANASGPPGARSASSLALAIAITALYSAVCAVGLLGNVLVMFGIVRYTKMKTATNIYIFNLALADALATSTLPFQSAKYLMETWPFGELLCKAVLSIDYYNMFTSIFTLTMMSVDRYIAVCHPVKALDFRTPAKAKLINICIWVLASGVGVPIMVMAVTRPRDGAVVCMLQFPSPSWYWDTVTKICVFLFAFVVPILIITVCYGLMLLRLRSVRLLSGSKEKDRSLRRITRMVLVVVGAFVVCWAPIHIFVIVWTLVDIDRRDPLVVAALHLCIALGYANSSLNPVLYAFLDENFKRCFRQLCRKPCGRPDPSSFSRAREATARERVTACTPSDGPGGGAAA

pIC50: −log10 of the molar value.

From ChEMBL document CHEMBL1147769, “Synthesis and biological activity of the first cyclic biphalin analogues” (Bioorg Med Chem Lett, 2006) come the findings set out here.

In the test the target is Delta-type opioid receptor (Homo sapiens, UniProt P41143). As to the kind of experiment: Agonistic efficacy at human delta opioid receptor by [35S]GTP-gammaS binding assay. The test is classed as functional. The method, boiled down:
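Cells expressing human DOR (delta) or rat MOR (mu) incubated with increasing test-compound concentrations and 0.1 nM [35S]GTP-gamma-S in assay buffer, duplicates, 90 min at 30 °C. Stopped by vacuum filtration through GF/B filters pretreated with assay buffer, then four washes with ice-cold 15 mM Tris/120 mM NaCl pH 7.4. Bound radioactivity counted by liquid scintillation after overnight extraction; Emax read as agonist-stimulated binding.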

`C[C@@H](NC(=O)[C@@H](N)Cc1ccc(O)cc1)C(=O)NCC(=O)N[C@@H](Cc1ccccc1)C(=O)NNC(=O)[C@H](Cc1ccccc1)NC(=O)CNC(=O)[C@@H](C)NC(=O)[C@@H](N)Cc1ccc(O)cc1` [BIPHALIN]: the pIC50 was 8.60.
